Source: patent US4916065A (priority 1988, dated 1990)

Test system: B16 melanoma
Assay: Antitumor activity against B16 melanoma (ip)

| Structure (SMILES) | Body weight change on day 5 (0.5 mg/kg/day, Q4D × 3, ip) | MST (median survival time) (0.5 mg/kg/day, Q4D × 3, ip) | T/C (0.5 mg/kg/day, Q4D × 3, ip) | Body weight change on day 5 (1.0 mg/kg/day, Q4D × 3, ip) | MST (median survival time) (1.0 mg/kg/day, Q4D × 3, ip) | T/C (1.0 mg/kg/day, Q4D × 3, ip) | Body weight change on day 5 (0.5 mg/kg/day, QD × 9, ip) | MST (median survival time) (0.5 mg/kg/day, QD × 9, ip) | T/C (0.5 mg/kg/day, QD × 9, ip) | Body weight change on day 5 (1.0 mg/kg/day, QD × 9, ip) | MST (median survival time) (1.0 mg/kg/day, QD × 9, ip) | T/C (1.0 mg/kg/day, QD × 9, ip) | Body weight change on day 5 (2.0 mg/kg/day, Q4D × 3, ip) |
| --- | --- | --- | --- | --- | --- | --- | --- | --- | --- | --- | --- | --- | --- |
| COC1=C(C(=O)O)C(C)C23OC24c2cc(OC(C)=O)c5c(c2NC3C#C/C=C\C#CC14)C(=O)c1c(OC(C)=O)ccc(OC(C)=O)c1C5=O (stereo not drawn) [BU-3420T acetate] | +0.5 g | 21.0 days | 156% | -0.3 g | 16.5 days | 122% | – | – | – | – | – | – | – |
| COC1=C(C(=O)O)C(C)C23OC24c2cc(O)c5c(c2NC3C#C/C=C\C#CC14)C(=O)c1c(O)ccc(O)c1C5=O (stereo not drawn) [BU-3420T] | – | – | – | – | – | – | -0.5 g | 18.5 days | 137% | -0.5 g | 21.5 days | 159% | – |
| CO[C@@]12[C@H](COC(N)=O)C3=C(C(=O)C(C)=C(N)C3=O)N1C[C@@H]1N[C@@H]12 [Mitomycin C, reference compound] | 0.0 g | – | – | +1.0 g | – | – | – | – | – | – | – | – | +0.5 g |
